Assay results from publication PMC5374532, “Rational mutagenesis by engineering disulphide bonds improves Kluyveromyces lactis beta-galactosidase for high-temperature industrial applications” (Scientific Reports, 2017).

Tested on: O=[N+]([O-])c1ccc(O[C@@H]2O[C@H](CO)[C@H](O)[C@H](O)[C@H]2O)cc1
Test: purified protein
Conditions: Z buffer (100 mM Na2HPO4, 40 mM NaH2PO4, 10 mM KCl, 1.6 mM MgSO4), 30 °C, 0.3 μg/mL enzyme, substrate 0-20 mM, residue 116 also printed as Asp116

Substance | Km [µM] | Vmax [µmol/min/mg]
Kl-β-Gal (Kluyveromyces lactis β-galactosidase) (Kluyveromyces lactis NRRL Y-1140; D116C/T270C) | 2220 ± 250 | 99.4
Kl-β-Gal (Kluyveromyces lactis β-galactosidase) (Kluyveromyces lactis NRRL Y-1140; D116C/G818C/T270C) | 2470 ± 360 | 146
